Data from article PMC6868653 (Pharmacology Research & Perspectives, 2019).

Target: human angiotensin AT1 (Homo sapiens, UniProt P30556)
Experiment: Angiotensin AT1 antagonist assay
Type: cell-based

- IC50: 2.51 nM
SMILES: CCCc1nc2c(C)cc(-c3nc4ccccc4n3C)cc2n1Cc1ccc(-c2ccccc2C(=O)O)cc1 [telmisartan]
